Experimental data as given in publication PMC4069108 (PLoS ONE, 2014).

Chains of the proteins cited; added tags and fusions are not shown.
UniProt P48039, whole entry: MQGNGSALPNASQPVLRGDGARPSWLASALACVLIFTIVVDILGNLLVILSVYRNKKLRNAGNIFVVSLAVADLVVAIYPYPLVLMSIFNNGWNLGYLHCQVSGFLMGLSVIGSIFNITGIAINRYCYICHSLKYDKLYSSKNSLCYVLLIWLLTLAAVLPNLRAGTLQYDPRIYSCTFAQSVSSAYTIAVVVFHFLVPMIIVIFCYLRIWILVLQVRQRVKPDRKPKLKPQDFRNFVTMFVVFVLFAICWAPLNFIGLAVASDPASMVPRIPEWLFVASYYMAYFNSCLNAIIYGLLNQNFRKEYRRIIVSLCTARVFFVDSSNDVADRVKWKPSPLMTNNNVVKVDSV

Experiments:
[1] = biological target: recombinant human MT1 receptor purified from Pichia pastoris (MT1 purified) (Homo sapiens, UniProt P48039); test: [3H]-melatonin competition, PEG precipitation and filtration; assay type: binding; settings: purified in […] Fos14/[…] CHAPS; […] [3H]-melatonin, […] CHAPS/[…] CHS, pH […] MgCl2, […] °C
[2] = biological target: human melatonin MT1 receptor (MT1 CHO membranes) (Homo sapiens, UniProt P48039); test: [3H]-melatonin competition, filtration; assay type: binding; settings: CHO membranes; […] [3H]-melatonin, pH […] MgCl2, […] °C

`COc1ccc2cccc(C(CO)CNC(=O)CF)c2c1` (centres unmarked) was tested, and the “MT1 purified / pKi ± SEM” value [1] was 9.09±0.21 pKi (-log M) and the “MT1 CHO membranes / pKi ± SEM” value [2] was 8.53±0.06 pKi (-log M).
